{"sequences": {"note": "Amino acid sequences for entries named in this document (tags omitted). A change or cut given only in a name is not applied to a line headed by its entry.", "UniProt P31947": "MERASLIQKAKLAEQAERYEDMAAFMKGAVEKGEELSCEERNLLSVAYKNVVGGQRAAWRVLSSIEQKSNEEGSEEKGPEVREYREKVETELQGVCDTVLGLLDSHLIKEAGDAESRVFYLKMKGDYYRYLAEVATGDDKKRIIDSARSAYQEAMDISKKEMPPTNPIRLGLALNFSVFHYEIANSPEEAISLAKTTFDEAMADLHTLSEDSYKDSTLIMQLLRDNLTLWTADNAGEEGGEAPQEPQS"}, "source": "paper doi:10.1101/2024.04.25.591105", "biological_target": "FAM-labeled ERα peptide, 5-FAM-AEGFPA{pT}V-COOH (8mer)", "assay": "fluorescence polarisation", "data": [{"substance": "14-3-3σ FL protein (from UniProt P31947 1-248) (natural protein)", "values": [{"measurement": "EC50 of the stabiliser 163", "result": 4000, "unit": "nM"}, {"measurement": "EC50 of the stabiliser FC-A", "result": 421, "unit": "nM"}, {"measurement": "EC50 of the stabiliser FC-NAc", "result": 15, "unit": "nM"}]}]}
